# Assay results: ChEMBL document CHEMBL1135510, “Common and selective molecular determinants involved in metabotopic glutamate receptor agonist activity” (J Med Chem, 2002)
# Amino acid sequences for entries named in this document (tags omitted). A change or cut given only in a name is not applied to a line headed by its entry.
# UniProt P23385: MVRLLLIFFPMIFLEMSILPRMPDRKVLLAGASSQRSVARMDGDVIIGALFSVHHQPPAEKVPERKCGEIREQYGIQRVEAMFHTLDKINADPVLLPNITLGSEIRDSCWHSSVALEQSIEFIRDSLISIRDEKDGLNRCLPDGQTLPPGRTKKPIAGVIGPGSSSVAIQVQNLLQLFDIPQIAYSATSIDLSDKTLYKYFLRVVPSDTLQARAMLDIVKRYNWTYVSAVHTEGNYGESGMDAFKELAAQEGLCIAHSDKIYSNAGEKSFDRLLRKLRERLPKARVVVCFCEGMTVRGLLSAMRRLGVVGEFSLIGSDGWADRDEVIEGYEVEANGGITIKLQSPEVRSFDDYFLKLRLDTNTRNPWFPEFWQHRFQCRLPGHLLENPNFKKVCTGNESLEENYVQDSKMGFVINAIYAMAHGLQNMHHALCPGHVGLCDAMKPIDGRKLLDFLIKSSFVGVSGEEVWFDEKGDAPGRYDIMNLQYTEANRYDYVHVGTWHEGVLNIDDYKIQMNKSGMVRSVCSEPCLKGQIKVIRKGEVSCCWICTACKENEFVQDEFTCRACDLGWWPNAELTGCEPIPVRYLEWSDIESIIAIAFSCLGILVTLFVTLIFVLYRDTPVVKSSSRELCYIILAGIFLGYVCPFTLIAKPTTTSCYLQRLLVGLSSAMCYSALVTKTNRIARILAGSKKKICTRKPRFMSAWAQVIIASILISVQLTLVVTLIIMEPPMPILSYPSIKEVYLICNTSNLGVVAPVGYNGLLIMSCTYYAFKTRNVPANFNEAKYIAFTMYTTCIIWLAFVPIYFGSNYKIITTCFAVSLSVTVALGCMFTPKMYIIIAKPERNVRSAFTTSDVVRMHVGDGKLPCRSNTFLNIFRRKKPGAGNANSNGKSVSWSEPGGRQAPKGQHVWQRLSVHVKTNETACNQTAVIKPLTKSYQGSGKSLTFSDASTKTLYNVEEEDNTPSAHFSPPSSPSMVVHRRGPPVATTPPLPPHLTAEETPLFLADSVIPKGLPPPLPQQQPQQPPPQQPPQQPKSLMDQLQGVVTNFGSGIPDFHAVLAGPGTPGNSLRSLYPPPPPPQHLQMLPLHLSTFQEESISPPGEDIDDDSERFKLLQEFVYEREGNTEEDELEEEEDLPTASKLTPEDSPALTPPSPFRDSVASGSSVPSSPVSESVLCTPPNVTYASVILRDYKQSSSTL
# Biological target: Metabotropic glutamate receptor 1 (Rattus norvegicus, UniProt P23385)
# Test: Inhibition of binding to rat mGluR1a (metabotropic glutamate receptor) expressed in HEK-293 cells
# Type: cell-based, HEK293
smiles,measurement,value
N[C@@H](Cn1oc(=O)[nH]c1=O)C(=O)O [QUISQUALATE],Ki,10 nM
